CycPeptMPDB entries from one study

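Lipid, pH, incubation time, direction and concentration are not recorded in the data file. The list need not hold all peptides of the study. Entries at the database's floor value (log10 P of -10) are not listed.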

PAMPA is the parallel artificial membrane permeability assay, which has no cells and reads passive diffusion.
P is given in units of 10^-6 cm/s (from log10 values with two decimals); larger means faster passage.

- CC(C)C[C@H]1NC(=O)[C@@H]2CCCN2C(=O)C[C@H](Cc2ccccc2)NC(=O)CN(Cc2ccccc2)C(=O)C[C@H](Cc2ccccc2)NC(=O)[C@H](Cc2ccccc2)NC1=O: PAMPA 0.83 × 10^-6 cm/s
- CC(C)C[C@H]1C(=O)N(C)[C@@H](CC(C)C)C(=O)N2CCC[C@H]2C(=O)N(Cc2ccccc2)CC(=O)N[C@@H](Cc2ccccc2)C(=O)N2CCC[C@@H]2C(=O)N[C@@H](Cc2ccccc2)CC(=O)N1C: PAMPA 2.2 × 10^-6 cm/s
- CCCN1CC(=O)N[C@@H](CC(C)C)C(=O)N(C)[C@H](CC(C)C)C(=O)N2CCC[C@@H]2C(=O)N(Cc2ccccc2)CC(=O)N[C@@H](Cc2ccccc2)C1=O: PAMPA 7.4 × 10^-6 cm/s
- CC(C)C[C@@H]1NC(=O)[C@@H]2CCCN2C(=O)CN(Cc2ccccc2)C(=O)CN(Cc2ccccc2)C(=O)[C@@H](C)N(C)C(=O)[C@@H]2CCCN2C(=O)[C@H](Cc2ccccc2)NC1=O: PAMPA 0.16 × 10^-6 cm/s
- C[C@H]1NC(=O)[C@H](Cc2ccccc2)NC(=O)CN(Cc2ccccc2)C(=O)[C@H]2CCCN2C(=O)CN(Cc2ccccc2)C(=O)CN(Cc2ccccc2)C1=O: PAMPA 0.68 × 10^-6 cm/s
- CC(C)C[C@@H]1NC(=O)[C@H]2CCCN2C(=O)CN(Cc2ccccc2)C(=O)[C@H](CC(C)C)N(C)C(=O)C[C@H](Cc2ccccc2)NC(=O)[C@H](Cc2ccccc2)NC1=O: PAMPA 3.3 × 10^-6 cm/s
- CC(C)C[C@@H]1C(=O)N[C@@H](Cc2ccccc2)CC(=O)N2CCC[C@H]2C(=O)N(Cc2ccccc2)CC(=O)N[C@@H](Cc2ccccc2)C(=O)N[C@H](C)C(=O)N1C: PAMPA 3 × 10^-6 cm/s
- CCCN1CC(=O)N(C)[C@@H](CC(C)C)C(=O)N(Cc2ccccc2)CC(=O)N2CCC[C@@H]2C(=O)N[C@H](CC(C)C)C(=O)N[C@@H](Cc2ccccc2)C1=O: PAMPA 7.4 × 10^-6 cm/s
- CCCN1CC(=O)N(Cc2ccccc2)CC(=O)N(C)[C@H](CC(C)C)C(=O)N2CCC[C@@H]2C(=O)N(C)[C@H](CC(C)C)C(=O)N[C@@H](Cc2ccccc2)C1=O: PAMPA 2.9 × 10^-6 cm/s
- C[C@@H]1C(=O)N(Cc2ccccc2)CC(=O)N(Cc2ccccc2)CC(=O)N2CCC[C@@H]2C(=O)N(Cc2ccccc2)CC(=O)N[C@@H](Cc2ccccc2)C(=O)N1C: PAMPA 0.52 × 10^-6 cm/s
- CC(C)C[C@H]1NC(=O)C[C@H](Cc2ccccc2)NC(=O)[C@@H]2CCCN2C(=O)[C@H](Cc2ccccc2)NC(=O)CN(Cc2ccccc2)C(=O)[C@H]2CCCN2C(=O)C[C@H](Cc2ccccc2)NC1=O: PAMPA 1.2 × 10^-6 cm/s
- CC(C)C[C@H]1NC(=O)CN(Cc2ccccc2)C(=O)[C@H](C)NC(=O)[C@@H]2CCCN2C(=O)[C@H](Cc2ccccc2)NC(=O)[C@H](CC(C)C)N(C)C(=O)[C@@H]2CCCN2C1=O: PAMPA 0.54 × 10^-6 cm/s
- O=C1CN(Cc2ccccc2)C(=O)[C@H]2CCCN2C(=O)CN(Cc2ccccc2)C(=O)CN(Cc2ccccc2)C(=O)C[C@H](Cc2ccccc2)NC(=O)[C@H]2CCCN2C(=O)[C@H](Cc2ccccc2)N1: PAMPA 0.22 × 10^-6 cm/s
- CC(C)C[C@@H]1C(=O)N[C@@H](Cc2ccccc2)C(=O)N2CCC[C@@H]2C(=O)N(C)[C@H](C)C(=O)N(Cc2ccccc2)CC(=O)N(Cc2ccccc2)CC(=O)N2CCC[C@H]2C(=O)N1C: PAMPA 3.4 × 10^-6 cm/s
- CC(C)C[C@@H]1C(=O)N(Cc2ccccc2)CC(=O)N2CCC[C@H]2C(=O)N[C@H](CC(C)C)C(=O)N[C@@H](Cc2ccccc2)C(=O)N[C@@H](Cc2ccccc2)CC(=O)N1C: PAMPA 1.5 × 10^-6 cm/s
- CC(C)C[C@H]1C(=O)N(Cc2ccccc2)CC(=O)N2CCC[C@@H]2C(=O)N(Cc2ccccc2)CC(=O)N[C@@H](Cc2ccccc2)C(=O)N2CCC[C@H]2C(=O)N[C@@H](Cc2ccccc2)CC(=O)N1C: PAMPA 0.072 × 10^-6 cm/s
- CC(C)C[C@H]1NC(=O)C[C@H](Cc2ccccc2)NC(=O)[C@H]2CCCN2C(=O)[C@H](Cc2ccccc2)NC(=O)CN(Cc2ccccc2)C(=O)[C@@H]2CCCN2C(=O)CN(Cc2ccccc2)C1=O: PAMPA 1.4 × 10^-6 cm/s
- CC(C)C[C@@H]1C(=O)N[C@@H](Cc2ccccc2)C(=O)N[C@@H](Cc2ccccc2)CC(=O)N(Cc2ccccc2)CC(=O)N[C@@H](Cc2ccccc2)CC(=O)N2CCC[C@H]2C(=O)N1C: PAMPA 3.4 × 10^-6 cm/s
- CC(C)C[C@@H]1NC(=O)[C@@H]2CCCN2C(=O)C[C@H](Cc2ccccc2)NC(=O)[C@H](CC(C)C)N(C)C(=O)C[C@H](Cc2ccccc2)NC(=O)[C@H](Cc2ccccc2)NC1=O: PAMPA 1.9 × 10^-6 cm/s
- CC(C)C[C@H]1NC(=O)C[C@H](Cc2ccccc2)NC(=O)[C@H](Cc2ccccc2)NC(=O)CN(Cc2ccccc2)C(=O)[C@@H]2CCCN2C(=O)[C@H](CC(C)C)N(C)C1=O: PAMPA 5.2 × 10^-6 cm/s
- CC(C)C[C@H]1NC(=O)[C@@H]2CCCN2C(=O)C[C@H](Cc2ccccc2)NC(=O)CN(Cc2ccccc2)C(=O)[C@H](C)N(C)C(=O)[C@H]2CCCN2C(=O)[C@H](Cc2ccccc2)NC1=O: PAMPA 0.47 × 10^-6 cm/s
- CCCN1CC(=O)N(C)[C@@H](CC(C)C)C(=O)N[C@@H](Cc2ccccc2)CC(=O)N2CCC[C@H]2C(=O)N(Cc2ccccc2)CC(=O)N[C@@H](Cc2ccccc2)C(=O)N2CCC[C@H]2C1=O: PAMPA 2.1 × 10^-6 cm/s

The last 2 entries again:

| SMILES | PAMPA (10^-6 cm/s) |
|---|---|
| CC(C)C[C@H]1NC(=O)[C@@H]2CCCN2C(=O)C[C@H](Cc2ccccc2)NC(=O)CN(Cc2ccccc2)C(=O)[C@H](C)N(C)C(=O)[C@H]2CCCN2C(=O)[C@H](Cc2ccccc2)NC1=O | 0.47 |
| CCCN1CC(=O)N(C)[C@@H](CC(C)C)C(=O)N[C@@H](Cc2ccccc2)CC(=O)N2CCC[C@H]2C(=O)N(Cc2ccccc2)CC(=O)N[C@@H](Cc2ccccc2)C(=O)N2CCC[C@H]2C1=O | 2.1 |

Data: CycPeptMPDB; original report Townsend et al. 2020, doi:10.26434/chemrxiv.13335941.v1.